Only a part is listed here, and it is no random draw. Records with an inconclusive call do not appear. Where a call stands in place of a potency, no number is given. Activity calls are given as the source filed them. Calls come from the whole dose curve; as a rule, active = well fitted cell-killing curve with a large enough effect in the repeat runs; inconclusive = weak or mixed curves, or effect the other way; inactive = flat fitted curve, though single readings scatter.
Test: qHTS assay to identify small molecule agonists of the constitutive androstane receptor (CAR) signaling pathway - cell viability counter screen (AID 1224836); note: nearly all actives have a fitted effect of over 45% in size
Conditions: HepG2-CYP2B6-hCAR viability, CellTiter-Fluor, 23 h, PK11195 added to every well; series mostly up to 92.4 µM
Description: U.S. Tox21 Program National Center for Advancing Translational Sciences [NCATS] NIH Chemical Genomics Center [NCGC] U.S. Environmental Protection Agency [EPA] National Institutes of Environmental Health Sciences [NIEHS] National Toxicology Program [NTP] U.S. Food and Drug Administration [FDA] Tox21 Assay Overview: The constitutive androstane receptor (CAR) is a nuclear receptor which regulates multiple drug metabolizing enzymes (DMEs) and transporters. Activating CAR will generally increase the transcription and subsequent translation of CYP2B6 and CYP3A4. These two DMEs represent about 50% of the drug metabolizing potential in the body. […] Recently, there have also been studies performed indicating CARs role in energy metabolism and cancer therapy. Therefore, inducing CARs activity could have a potential effect on diabetes and cancer. Identifying environmental toxins and compounds which modulate CAR, through the use of the Tox21 10K compound collection, will be an important step in determining the toxicity and potential therapeutic effects these factors will have on the human body. To differentiate true CAR agonists from cytotoxic substances, the assay is multiplexed with a cell viability assay.
Tox21 Assay Protocol Summary: A double-stable (hCAR and CYP2B6-2.2kb) transfected cell line, derived from human hepatoma (HepG2) cells, was utilized for the duration of the quantitative high-throughput screens. The HepG2-CYP2B6-hCAR cells were dispensed at 2500 cells/4 uL/well in 1536-well white solid bottom plates using a Multidrop Combi. After the assay plates were incubated at 37 C/5% CO2 for 4 hrs, 23 nL of compounds at 15 concentrations (from 5-48 columns) or positive control (from 1 to 4 columns) were transferred to the assay plates using a Pintool station. One uL of PK11195 (final concentration = 0.75 uM) was added, using a Flying Reagent Dispenser, inside each well. After a 23 hr incubation period at 37 C/5% CO2, 1 uL of CellTiter-Fluor reagent was added into each well of the assay plates using a Flying Reagent Dispenser. The fluorescence intensity in the plates was then measured using a ViewLux plate reader.
Potency is the fitted concentration of half-maximal effect.

SMILES	Potency	viability change, negative = cytotoxic
CN(N=O)C(=N)N[N+](=O)[O-]	inactive	
CCOP(=S)(CC)Sc1ccccc1 (stereo not given)	inactive	
CN(C(=O)Cc1ccccc1)[C@H]1CC[C@@]2(CCCO2)C[C@@H]1N1CCCC1	inactive	
CCOC(=O)Cl	inactive	
CCNC(C)Cc1ccc2c(c1)OCO2 (stereo not given)	inactive	
O=C(Cl)OCCOC(=O)Cl	inactive	
COP(=S)(Cl)OC	inactive	
COC(=O)Cl	inactive	
O=P(Cl)(Oc1ccccc1)Oc1ccccc1	inactive	
O=[As]c1ccccc1 (stereo not given)	active: 864 nM	
CCC(C)(OOC(C)(C)C)OOC(C)(C)C		inactive: 0.918% [at 19 µM]
CCCCO[P+](=O)OCCCC	inactive	
O=[N+]([O-])c1ccc(S(=O)(=O)O)c([N+](=O)[O-])c1	inactive	
ClP(Cl)c1ccccc1	inactive	
CC(C)CCCCCCCOP(OCCCCCCCC(C)C)Oc1ccccc1	inactive	
CCCCC(CC)CO[P+](=O)OCC(CC)CCCC (stereo not given)	inactive	
CC(C)OP(=S)(OC(C)C)SCCNS(=O)(=O)c1ccccc1	inactive	
O=[p+]1oc2ccccc2c2ccccc21 (stereo not given)	inactive	
CN(C(=O)Cc1cccc2occc12)[C@H]1CC[C@@]2(CCCO2)C[C@@H]1N1CCCC1	inactive	
O=P(Cl)(Cl)c1ccccc1	inactive	
CCCCOP(OCCCC)OCCCC	inactive	
O=[P+](Oc1ccccc1)Oc1ccccc1	inactive	
CN(C(=O)Cc1ccc(Cl)c(Cl)c1)[C@H]1CC[C@@]2(CCCO2)C[C@@H]1N1CCCC1	inactive	
O=C(Cl)Oc1ccccc1	inactive	
NC(=O)Nc1ccc([As](=O)(O)O)cc1	inactive	
